These results are taken from US5013743A, “Selective antibacterial agent against campytobacter” (Takeda Chemical Industries, Ltd., priority 1989, dated 1991).

This data set is classed as in vivo. The settings on record: oral, mice, 200 mg/kg.

Structures are written as SMILES.

Turning to `Cc1c(OCC(F)(F)F)ccnc1C[S+]([O-])c1nc2ccccc2[nH]1` (stereo not shown) [Compound 1], the dead animals entry was “no dead animals”.
